Reference: patent US5439891A (priority 1993, dated 1995)

O=C(/C=C/C=C/c1ccc2c(c1)OCO2)N1CCCCC1 [Piperine, (E, E) 1-[5-(1,3-benzodioxyl-5-yl)-1-oxo-2,4-pentadenyl] piperidine]
effect on bioavailability of synthetic antidiabetic drugs such as tolbutamide: no effect
